Literature values, collected in patent publication US5750534A (priority 1996, dated 1998).

Experiments:
mu receptor = settings: cited from earlier work
kappa receptor = settings: cited from earlier work

Oc1ccc2c3c1O[C@H]1[C@@H](O)CC[C@@]4(O)[C@@H](C2)N(CC2CCC2)CC[C@]314 [nalbuphine]
action on mu receptor (mu receptor): antagonist
action on mu receptor (mu receptor; listed as Nalbuphine): mu-receptor antagonist
action on kappa receptor (kappa receptor): agonist
action on kappa receptor (kappa receptor; listed as Nalbuphine): kappa-receptor agonist

Where two headings read alike, the source gives them in different places.
